Measurements from PubChem BioAssay AID602314 (ICCB-Longwood Screening Facility, Harvard Medical School, 2012).
The list shows a part of the results, in another mix than the full data. Activity calls are given as the source filed them. No stated cut-off is given here; in the data, active means inhibition above about 30% (passing the limit was not always enough); inactive means the rest.

The compounds below were run on MgrA (MarR family transcriptional regulator), Staphylococcus aureus Newman (assay: modulators of MgrA DNA binding – biochemical, S. aureus Newman, fluorescence polarization, primary screen (AID 602314;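 further: 0% = protein plus DNA without compound and 100% = DNA alone without protein; higher means less MgrA bound to DNA so lower polarization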)). Conditions: active compounds read high, concentration not given here.
`CN(CCCl)CCCl` was tested, and the inhibition was inactive: -1.25%.
